Laboratory results as given in patent US8916606B2, “Therapeutic compositions and methods for targeted delivery of active agents” (William Marsh Rice University, priority 2009, dated 2014).

System: OSC19-Luc cells (EGFR+/GFP+)
Test: In vitro targeting, co-culture of OSC19-Luc and MCF-7 cells, bioluminescence
Type: cell-based
Conditions: EGFR+ and EGFR− cells co-cultured
Description: To study the targeting effects of Cet/PTX/PEG-HCCs, OSC-19 cancer cells were first retrovirally infected with GFP and firefly luciferase gene as described in literature to form OSC19-Luc cells (EGFR^+/GFP^+). See Theodossis et al., Cancer Research 2005, 63, 1818-1821. Next, the OSC19-Luc cells were mixed with MCF-7 (EGFR^−/GFP^−) cancer cells and suspended in DMEM prior to the treatment.
Applicants envisioned that after treating cells with EGFR-targeted nanovectors, the bioluminescence intensity from luciferase could be quantified by using an IVIS 200 Imaging System (Xenogen). Applicants also envisioned that if EGFR-targeted PTX/PEG-HCCs could target OSC19-Luc cells, the measured bioluminescence would be lower than that with control and untargeted PTX/PEG-HCCs.
To confirm whether the increase in EGFR^+ cell killing was the result of the targeting effect from Cet/PTX/PEG-HCCs, the mixed cells of OSC-19-Luc (EGFR^+) and MCF-7 (EGFR^−) were pretreated with EGF before treatment. […] This supports the hypothesis that Cet/PTX/PEG-HCC acts primarily through an EGFR targeting effect.

Cetuximab: FDA-approved monoclonal antibody that selectively binds EGFRs
killing of OSC19 cells in co-culture with MCF-7 (bioluminescence): no effect on the cells
